From ChEMBL document CHEMBL1770103, “Synthesis and biological evaluation of dibenz[b,f][1,5]oxazocine derivatives for agonist activity at κ-opioid receptor” (Eur J Med Chem, 2011)
Activity calls are given as the source filed them. No cut-off for these calls is given here.

By UniProt entry, the sequences of proteins in these tests, tags left out. Where a name states a change or a piece, a line headed by the entry shows the natural chain unless it says otherwise.
UniProt P34975: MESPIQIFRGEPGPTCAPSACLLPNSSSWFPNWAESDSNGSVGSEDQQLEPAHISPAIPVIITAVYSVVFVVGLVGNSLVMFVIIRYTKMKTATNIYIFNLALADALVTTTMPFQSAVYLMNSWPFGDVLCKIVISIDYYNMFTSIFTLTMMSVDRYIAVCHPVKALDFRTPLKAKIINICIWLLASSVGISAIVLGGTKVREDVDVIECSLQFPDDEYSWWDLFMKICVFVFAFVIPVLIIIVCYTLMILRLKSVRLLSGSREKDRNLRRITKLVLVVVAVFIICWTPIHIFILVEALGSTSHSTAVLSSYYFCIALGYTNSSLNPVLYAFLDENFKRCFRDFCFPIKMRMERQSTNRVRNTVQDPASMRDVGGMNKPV
UniProt P33534: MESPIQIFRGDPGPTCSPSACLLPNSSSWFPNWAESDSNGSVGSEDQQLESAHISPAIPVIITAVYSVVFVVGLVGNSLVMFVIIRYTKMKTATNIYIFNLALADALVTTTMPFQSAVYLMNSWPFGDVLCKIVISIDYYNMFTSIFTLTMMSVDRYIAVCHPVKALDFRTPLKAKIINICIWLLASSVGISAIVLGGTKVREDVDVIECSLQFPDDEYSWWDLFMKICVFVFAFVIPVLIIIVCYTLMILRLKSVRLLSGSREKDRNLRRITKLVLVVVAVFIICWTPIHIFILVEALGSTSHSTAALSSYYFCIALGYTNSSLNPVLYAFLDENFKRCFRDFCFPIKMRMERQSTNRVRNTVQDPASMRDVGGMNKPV

Assays:
[1] = target: Kappa-type opioid receptor (Rattus norvegicus) (UniProt P34975); test: Agonist activity at kappa opioid receptor in rat C6 cells assessed as induction of ERK1/2 phosphorylation at 1 uM after 10 min by Western blot analysis
[2] = target: Kappa-type opioid receptor (Mus musculus) (UniProt P33534); test: Displacement of [125I]dynorphin from kappa opioid receptor in BALB/c mouse brain membrane at 5 uM by liquid scintillation counting relative to control; format: cell membranes

For `CN(C(=O)Cc1ccc(Cl)c(Cl)c1)C1CCCCC1N1CCCC1` (configuration not stated), the Activity [1] was “Active” and the inhibition [2] was 50%.
